Laboratory results published in patent publication US12139488B2, “Pyrido[3,2-d]pyrimidine compounds uses thereof for treating a proliferative disease” (Universite de Montreal, priority 2021, dated 2024).

Amino acid sequences for entries named in this document (tags omitted).
UniProt P10398, whole entry: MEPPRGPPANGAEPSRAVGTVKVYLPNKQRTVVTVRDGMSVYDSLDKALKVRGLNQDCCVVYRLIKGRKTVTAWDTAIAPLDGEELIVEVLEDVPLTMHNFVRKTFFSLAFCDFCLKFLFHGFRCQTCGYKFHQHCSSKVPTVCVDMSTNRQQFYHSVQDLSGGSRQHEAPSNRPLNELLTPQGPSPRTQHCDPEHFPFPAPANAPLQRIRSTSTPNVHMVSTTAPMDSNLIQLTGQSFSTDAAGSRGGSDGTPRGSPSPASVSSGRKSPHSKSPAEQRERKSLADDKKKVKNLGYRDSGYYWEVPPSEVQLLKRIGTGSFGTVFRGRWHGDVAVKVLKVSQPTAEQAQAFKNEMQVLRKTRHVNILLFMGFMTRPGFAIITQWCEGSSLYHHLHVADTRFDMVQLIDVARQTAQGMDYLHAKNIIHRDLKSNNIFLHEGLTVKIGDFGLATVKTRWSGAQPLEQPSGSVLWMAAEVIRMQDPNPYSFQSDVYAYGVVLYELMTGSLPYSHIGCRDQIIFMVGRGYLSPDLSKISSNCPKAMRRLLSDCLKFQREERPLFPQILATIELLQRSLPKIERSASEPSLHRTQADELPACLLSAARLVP

Experiments:
ARAF = ARAF (Homo sapiens (Human), UniProt P10398); assay: ARAF kinase activity assay (AlphaLISA p-MEK 1/2 detection); settings: read-out: Kinase IC50 (nM) ARAF
Experimental: Compound preparation: solid samples of each substances in 1 dram vials were suspended in DMSO (Fisher Scientific) at a stock concentration of 20 mM. Stocks were kept at −20° C. and protected from light. If solubility of the compound at 20 mM appeared to be an issue, the initial concentration of the DMSO stock was changed to 10 mM or 5 mM.
In vitro enzymatic reactions were used for evaluating compounds intrinsic activity against BRAF, CRAF and ARAF. For BRAF and CRAF, 0.375 nM of purified GST-tagged kinases (cat #B4062-10 UG and cat #R1656-10 UG respectively from Millipore Sigma) were incubated with 75 nM of kinase-dead MEK1 substrate (cat #40075; BPS Bioscience) in the presence of 10 μM of Ultrapure ATP (cat #V9102; Promega; part V915A) with and without the test compound in a buffer containing 50 mM HEPES pH 7.5, 10 mM MgCl2, 1 mM EDTA, 0.01% Brij-35 and 2 mM DTT. Separate reactions were performed with the MEK1 substrate and ATP as a blank control. ARAF, kinase reactions were rigorously the same with the exception that kinase concentration was raised to 3.75 nM (cat #1768-0000-1; Reaction Biology).
For compound treatment, 5 μL/well of test substance solution are placed in a 384-well proxyplate (Perkin Elmer) and mixed with 2× concentrated kinase reactions. The dilution series is selected so that nine concentrations cover a range from 100 nM to 0.01 nM. […] The final concentration of DMSO in the assay is set at 0.05%.
ARAF kinase reactions were carried out for a total of 2 hours at 30° C. and then stopped by addition of EDTA at a final concentration of 40 mM. Reactions were then detected using the AlphaLISA® SureFire® Ultra™ p-MEK 1/2 (Ser218/222) (PerkinElmer) kit. Reactions were performed with 5 μL of kinase reaction according to the manufacturer's specifications in 384-well proxyplates (Perkin Elmer) followed by overnight incubation of the AlphaLISA® reactions at room temperature in a humidified chamber. After completion of the detection reactions, the signals were recorded on a Synergy Neo2 plate reader (Biotek) equipped with AlphaLISA® filters. The effect of each compound dilution on the pMEK signal generated by ARAF reactions was expressed in % inhibition and calculated as follows. An internal 100% inhibition control (average of luminescence in kinase reactions comprising kinase dead MEK1 substrate alone) was included in each plate to measure of pMEK background and was subtracted from each data point. The average of DMSO (vehicle) controls (set as 0% inhibition) was also established and used to calculate % inhibition: % inhibition=100*(1−((pMEK signalcompound)/(pMEK signalDMSO)))
IC50 values were obtained by plotting the kinase inhibition values and fitting the dose-activity curves using a log(agonist) versus response-variable slope (four parameters) function using either GraphPadPrism (V7.0) or Dotmatics Screening Ultra platform. Standards included in the ARAF kinase assay were Belvarafenib (MedChem Express cat #HY-109080; CAS #1446113-23-0), LXH254 (MedChem Express cat #HY-112089; CAS #1800398-38-2) and BGB283 (cat #HY-18957; CAS #1446090-79-4).

[1] = system: pERK in Mewo cells (NF1 LOF); assay: Phospho-ERK inhibition (AlphaLISA), Mewo; settings: for IC50: read-out: Mewo pERK IC50; for Mewo pERK % Ymin: value in parentheses
Experimental: All cancer cell lines (A375, A101D, A2058, RKO, HT29 SK-MEL 30, IPC298, HepG2, HCT-116, Lovo, SWV620, SW480, NCI-H358, NCI-H2122, Calu-6, NCIH2087, NCIH1755, NCIH1666 and Mewo) were obtained from ATCC and cultured in RPMI-1640 medium (Gibco) supplemented with 5% heat inactivated fetal bovine serum (FBS, Wisent) at 37° C. under 5% CO2. Cells were maintained in T175 flasks (Greiner). They were passaged by removing the culture medium, washing once in 10 mL of room temperature Phosphate Buffered Saline (PBS; Wisent) and incubating at 37° C. with 2 mL of 0.05% Trypsin (Thermo-Fisher). Trypsin was then inactivated by adding complete growth medium and the cells were then replated in a T175 culture dish at the appropriate dilution. All cell lines were routinely tested for mycoplasma contamination. Tissue type and mutational status of each cell line can be found in Table B.
AlphaLISA® SureFire® Ultra™ p-ERK 1/2 (Thr202/Tyr204) analysis was conducted on cells plated in 100 μL of complete RPMI-1640 growth medium in 96-well flat-bottomed transparent dishes (Costar) at a density indicated in Table C. Cells were maintained overnight at 37° C. under 5% CO2 before treatment with compounds' dilution series for one hour. The cell density in cells/cm^2 corresponds to cell number divided by the area of one well of a 96-well plate ([…]).
In a dilution series 100 μL/well of test substance dilution prepared in complete RPMI-1640 growth media was added to the cells. The dilution series is selected so that ten concentrations cover a range from 10 μM to 0.33 nM. If necessary the initial concentration of 10 μM is increased to 100 μM or lowered to 1 μM (as in the case of A375 and H1666 cells, which are generally more sensitive to the compounds) and further dilution is carried out accordingly. The final concentration of DMSO in the assay is set at 0.5%.
After treatment, media was removed and cells were lysed in 50 μL of 1× AlphaScreen Ultra Lysis Buffer (Perkin Elmer). The AlphaLISA® SureFire® Ultra™ p-ERK 1/2 (Thr202/Tyr2O4) (PerkinElmer) reactions were performed with 5 μL of cell lysate according to the manufacturer's specifications in 384-well proxyplates (Perkin Elmer) followed by overnight incubation of the reactions at room temperature in a humidified chamber. After completion of the reactions, the signals were recorded on an EnVision plate reader (Perkin Elmer) using built in AlphaLISA® settings.
The effect of each compound dilution on the pERK signal was expressed in % inhibition and calculated as follows. An internal 100% inhibition control ([…] trametinib, cat #HY-10999; MedChem Express; CAS #871700-17-3) was included in each plate and used as a measure of pERK background. First, the value obtained for trametinib was subtracted from each data point. The average of DMSO (vehicle) controls (set as 0% inhibition) was established and used to calculate % inhibition: % inhibition=100*(1-((pERK signalcompound)/(pERK signalDMSO)))
The ability of each compound to inhibit pERK signal was expressed as an IC50 value obtained by plotting the inhibition values for each data point of a dilution series and fitting the obtained curves using a log(agonist) versus response-variable slope (four parameters) function using GraphPadPrism (V7.0) or Dotmatics Screening Ultra platform.
When present, paradoxical pERK induction is inferred from the negative % inhibition values observed in the pERK IC50 curves of a compound.

IC50 (ARAF)	IC50 [1]	SMILES	Mewo pERK % Ymin [1]
1 to 10 nM	0.03 to 0.3 µM	O=S(=O)(CCCN1CCOCC1)c1cn(-c2ccc3ncnc(Nc4c(F)ccc(NS(=O)(=O)c5cccc(Cl)c5Cl)c4F)c3n2)c2ccccc12	−13%
1 to 10 nM	0.03 to 0.3 µM	CS(=O)(=O)C1CCN(c2cccc3c2nnn3-c2ccc3ncnc(Nc4c(F)ccc(NS(=O)(=O)c5cccc(Cl)c5Cl)c4F)c3n2)CC1	15%
1 to 10 nM	0.03 to 0.3 µM	COc1ccc(S(=O)(=O)Nc2ccc(F)c(Nc3ncnc4ccc(-n5cc(S(=O)(=O)N(C)CCN(C)C)c6ccccc65)nc34)c2F)c(C)c1F	−14%
1 to 10 nM	0.03 to 0.3 µM	CN(CCN1CCOCC1)S(=O)(=O)c1cn(-c2ccc3ncnc(Nc4c(F)ccc(NS(=O)(=O)c5cccc(Cl)c5Cl)c4F)c3n2)c2ccccc12	8%
1 to 10 nM	0.03 to 0.3 µM	Cc1c(Cl)cccc1S(=O)(=O)Nc1ccc(F)c(Nc2ncnc3ccc(-n4cnc5c(N)cccc54)nc23)c1F	−1%
1 to 10 nM	0.03 to 0.3 µM	O=S(=O)(Nc1ccc(F)c(Nc2ncnc3ccc(-n4cnc5c(N6CCC7(CCCC7)CC6)cccc54)nc23)c1F)c1cccc(Cl)c1Cl	3%
1 to 10 nM	0.03 to 0.3 µM	O=S(=O)(Nc1ccc(F)c(Nc2ncnc3ccc(-n4nnc5ccccc54)nc23)c1F)c1cccc(Cl)c1Cl	−17%
1 to 10 nM	0.03 to 0.3 µM	COCCOc1cccc2c1nnn2-c1ccc2ncnc(Nc3c(F)ccc(NS(=O)(=O)c4cccc(Cl)c4Cl)c3F)c2n1	−11%
< 1 nM	0.03 to 0.3 µM	Cc1c(Cl)csc1S(=O)(=O)Nc1ccc(F)c(Nc2ncnc3ccc(-n4cc(S(=O)(=O)N(C)CCN(C)C)c5ccccc54)nc23)c1F	−8%
1 to 10 nM	0.03 to 0.3 µM	CCC1(O)CCN(c2cccc3c2ncn3-c2ccc3ncnc(Nc4c(F)ccc(NS(=O)(=O)c5cccc(Cl)c5Cl)c4F)c3n2)CC1	−12%
1 to 10 nM	0.03 to 0.3 µM	Cc1c(F)cccc1S(=O)(=O)Nc1ccc(F)c(Nc2ncnc3ccc(-n4cnc5c(-c6cccnc6)cccc54)nc23)c1F	3%
> 10 nM	0.03 to 0.3 µM	O=S(=O)(Nc1ccc(F)c(Nc2ncnc3ccc(-n4cnc5c(N6CCC(O)(C(F)(F)F)CC6)cccc54)nc23)c1F)c1cccc(Cl)c1Cl	−4%
1 to 10 nM	0.03 to 0.3 µM	Cc1c(Cl)cccc1S(=O)(=O)Nc1ccc(F)c(Nc2ncnc3ccc(-n4cc(C(=O)N5CCN(C)CC5)c5ccccc54)nc23)c1F	−6%
